Each structure is given as a SMILES string. The list shows a part of the results, in another mix than the full data. Calls of active or inactive are those of the source. Calls come from the whole dose curve; as a rule, active = well fitted inhibition curve with a large enough effect; inconclusive = small, poorly fitted or top-dose-only effect; inactive = no such curve, though single readings can be large or run the other way.

The assay can be described thus: qHTS Assay for Identifying the Cell-Membrane Permeable IMPase Inhibitors: Potentiation with Lithium.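 Note: IP1 builds up when IMPase is blocked and the TR-FRET signal falls; plate controls were basal vehicle for no effect and high inhibitor control for full effect; nearly all actives have a fitted effect of over 50% in size.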 As to conditions: CHO-M1 cells, IP1 TR-FRET (IP-One), carbachol + lithium; at 59.4 µM (top of the series) unless noted.
Turning to `CCN1CCC(Nc2cccc(F)c2)CC1`, the activity, negative = IMPase inhibition was inactive: -1.77%.
The same measure for `CN(C)c1ccc(C(=O)NCC2(N3CCCCC3)CCCCC2)cc1`: inactive: 5.35%; for `Fc1ccccc1NC1CCN(Cc2ccccc2)CC1`: inactive: -2.07% [at 38.3 µM]; for `CCC(CO)(C(=O)OC1CN2CCC1CC2)c1ccccc1` (stereo not given): inactive: 32.1% [at 38.3 µM].
The same measure for `COc1cc(OC)cc(C(=O)NCC2(N3CCOCC3)CCCCC2)c1`: inactive: 0.531%.
As to `CCOc1ncccc1C(=O)NCC1(N2CCOCC2)CCCCC1`, the activity, negative = IMPase inhibition was inactive: 31.8% [at 38.3 µM].
As for `CC(C)(C)OC(=O)N1CCC(Nc2ccccc2)CC1`, the activity, negative = IMPase inhibition is inactive: -6.07%.
The same measure for `O=C(O)C1(Nc2ccccc2)CCN(Cc2ccccc2)CC1`: inactive: 10.5%.
The same measure for `N/C(=N\O)c1c(N)no[n+]1[O-]`: inactive: -5.58% [at 38.3 µM].
In the case of `O=C(OC1CN2CCC1CC2)C1c2ccccc2C=Cc2ccccc21` (stereo not given), the activity, negative = IMPase inhibition was inactive: 26%.
As for `COc1ccc(C(=O)NCC2(N3CCOCC3)CCCCC2)cc1OC`, the activity, negative = IMPase inhibition is inactive: -5.5%.
Then `c1ccc(CN2CCC(Nc3ccccc3)CC2)cc1`, with inactive: 28.9% [at 38.3 µM].
Consider `ClCCOP(OCCCl)OCCCl`, for which the activity, negative = IMPase inhibition was inactive: -6.81%.
Turning to `N#Cc1ccc(C(=O)NCC2(N3CCCCC3)CCCCC2)cc1`, the activity, negative = IMPase inhibition is inactive: 15.7%.
With `O=[N+]([O-])c1cc([N+](=O)[O-])c(NCC2CCS(=O)(=O)C2)c([N+](=O)[O-])c1` (stereo not given), the activity, negative = IMPase inhibition is inactive: 9.04%.
The same measure for `COc1ccc(NC2CCN(C(=O)OC(C)(C)C)CC2)cc1`: inactive: -0.0592%; for `CN1CCN(CCOC(=O)C(O)(c2ccccc2)c2ccccc2)CC1`: inactive: 27.1%.
Consider `O=C(NCC1(N2CCOCC2)CCCCC1)c1cc(=O)[nH]c2ccccc12`, for which the activity, negative = IMPase inhibition is inactive: -17.5% [at 38.3 µM].
Turning to `O=C(NCC1(N2CCCCC2)CCCCC1)c1cccc([N+](=O)[O-])c1`, the activity, negative = IMPase inhibition is inactive: 16.3%.
In the case of `N#CC1(Nc2ccccc2)CCN(CCc2ccccc2)CC1`, the activity, negative = IMPase inhibition was inactive: 3.96% [at 38.3 µM].
Then `NC1CCCCC1.NP(=O)(O)N(CCCl)CCCl`, with inactive: -5.53%.
Consider `COc1ccc(CN(CCCl)CCCl)cc1Cl`, for which the activity, negative = IMPase inhibition was inactive: 15.6%.
As to `CN(C)c1cccc(C(=O)NCC2(N3CCCCC3)CCCCC2)c1`, the activity, negative = IMPase inhibition is inactive: 6.62%.
Then `CC(C)c1ccc(NC2CCN(C(=O)OC(C)(C)C)CC2)cc1`, with inactive: 8.76%; and `CCOP(=O)(Cl)Cl`, with inactive: -11.8%.
For the compound `O=C(NCC1(N2CCOCC2)CCCCC1)c1cc2ccccc2o1`, the activity, negative = IMPase inhibition is inactive: 7.37% [at 38.3 µM].
For the compound `CCOC(=O)N1CCC(Nc2ccc(OC)cc2)CC1`, the activity, negative = IMPase inhibition was inactive: 3.15%.
Consider `O=C(OC1CN2CCC1CC2)C1c2ccccc2Oc2ccccc21` (stereo not given), for which the activity, negative = IMPase inhibition is inactive: 19.6% [at 38.3 µM].
For `COc1ccc(C(=O)NCC2(N3CCCCC3)CCCCC2)c(OC)c1OC`, the activity, negative = IMPase inhibition is inactive: 8.16%.
For `COc1ccc(NC2CCN(CCc3ccccc3)CC2)c(OC)c1`, the activity, negative = IMPase inhibition was inactive: 5.62% [at 38.3 µM].

Source of the values: PubChem BioAssay AID1457 (National Center for Advancing Translational Sciences (NCATS), 2008).
